Rows were chosen to be rich in hits. Some 0.72% of all compounds tested hit in one or more screens of this group.
RXFP1 ag = RXFP1 (human) receptor agonism. actives 0.3% (n = 370,000). Q9HBX9. Potency, µM (doses to about 57.5 µM), for inactives: top-dose activation, most hits filed as activators. AID 2676. HEK293T-RXFP1 cAMP TR-FRET, 30 min; response scale: percent of porcine relaxin response, buffer zero; further: potency means the concentration at half of the fitted maximal effect; on the % scale 0 is the no-effect control and ±100 the full control effect; nearly all actives have a fitted effect of over 60% in size
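Agonist response is measured as cAMP accumulation in an RXFP1-transfected HEK293T line under PDE4 inhibition. Values are scaled between buffer-only and 29 nM porcine relaxin, and EC50s come from standard Hill equation fits.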
ERG Ets-DNA blk = blocks human ERG Ets domain binding to DNA; P11308; fluorescence polarization, His-ERG Ets domain / labelled DNA; Potency, µM (doses to about 76.9 µM), inactives show at the top dose FP activity, negative = inhibition, actives largely listed as inhibitors; actives 0.028% (n = 370,000); AID 624246; active means well fitted inhibition curve with a large enough effect in the polarisation, with a control signal flat; inconclusive means small, poorly fitted or top-dose-only effect, or effect the other way, or a change in a side signal; inactive means no such curve, though single readings can be large or run the other way; the % refers to the polarisation;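 further: polarization taken with two DNA probes labelled with fluorescein and Texas red; potency means the concentration at half of the fitted maximal effect; % of control where 0% means no effect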
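His-tagged ERG Ets domain (1 uM in the protein solution; 300mM KCl, 50mM Tris-HCl, 1mM EDTA, 1mM DTT, pH 7.5) received compound, then a probe mix of 5 nM fluorescein-DNA and 100nM Texas-615-DNA. Fluorescence polarization was read for both dyes.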
S-ASM inh = human S-ASM enzyme inhibition; placental ASM, HMU-PC fluorogenic substrate, 60 min; Potency, µM (top dose mostly 57.5 µM), for the others: at the highest dose activity change, negative = inhibition, hits mostly inhibitors; P17405; AID 504937; actives 0.006% (n = 340,000); further: potency means the concentration at half of the fitted maximal effect
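HMU-PC0 cleavage (9 uM final) by human placental ASM, 60 min at 37 °C following 10 min compound exposure at RT; stopped at pH 10, fluorescence Ex 386/Em 447 nm.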
miR-21 FLuc = miR-21 reporter, rising signal. HeLa miR-21 FLuc reporter, luciferase, 48 h. Potency, µM (highest dose often 38.3 µM), for the others: at the highest dose reporter change, positive = more light. 340,000 tested, under 10 active. AID 2288; active = well fitted rising curve with a large enough effect; inconclusive = small, poorly fitted or top-dose-only effect; inactive = no such curve, though single readings can be large or run the other way;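 further: % of control where 0% means no effect; miR-21 action dims this reporter so a rising signal means less miR-21 action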
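HeLa cells endogenously expressing miR-21, stably carrying CMV-driven firefly luciferase with a downstream miR-21 binding site, 2000 cells/well. Titrations up to approximately 40 uM, 48 hours; luciferase luminescence read.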
RXFP1 antag = RXFP1 (human) relaxin receptor antagonism; HEK293-RXFP1, relaxin-stimulated cAMP HTRF, 30 min; stronger effect = lower value; activity change, negative = inhibition, % at 57.5 µM; actives 0.59% (n = 350,000);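 active means activity change of -60% or lower, but not beyond a set lower limit; inconclusive means change between -60% and -40%, or beyond the set limit; inactive means change above -40%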; further: on the % scale 0 is the no-effect control and ±100 the full control effect
Mito fusion act = blocks mitochondrial division or promotes mitochondrial fusion | S. cerevisiae fusion-defective mutant growth rescue, CellTiterGlo 48 h | Potency, µM (highest dose often 46.1 µM), for inactives: at the highest dose growth rescue (activation), hits mostly activators | actives 0.23% (n = 320,000); further: potency means the concentration at half of the fitted maximal effect; % of control where 0% means no effect; nearly all actives have a fitted effect of over 45% in size
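Luminescent cell viability in 1536-well qHTS format served as the measure of rescued growth in ts fusion-mutant S. cerevisiae cultured on non-fermentable YPEG for 48 hours at 37C.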
An asterisk follows results filed as active; u = inconclusive; x = no result given. Unless noted, the call rests on the fitted dose curve; in most records, active means well fitted curve in the direction sought with a large enough effect; inconclusive means small, poorly fitted or top-dose-only effect, or another doubt; inactive means no such curve, though single readings can be large; an effect the other way counts as inactive or inconclusive.

Letter code – A = RXFP1 ag; B = ERG Ets-DNA blk; C = S-ASM inh; D = miR-21 FLuc; E = RXFP1 antag; F = Mito fusion act
O=C1C(SCCO)=C(SCCO)C(=O)c2ccccc21
  A = -3% | B = 13µM* | C = 0% | D = x | E = x | F = u
CC1=C(SCc2ccccc2)C(=O)c2ccccc2C1=O
  A = x | B = 15% | C = -13% | D = x | E = u | F = x
Cn1cc([N+](=O)[O-])c(C(=O)Nc2sc3c(c2C#N)CCC3)n1
  A = 0% | B = 1% | C = -4% | D = -5% | E = 2 | F = 11µM*
CC(C)Cc1cc(C(=O)Nc2sc3c(c2C#N)CCC3)no1
  A = 2% | B = 1% | C = -7% | D = -9% | E = -66* | F = 7%
Cn1cc(Br)c(C(=O)Nc2sc3c(c2C#N)CCC3)n1
  A = 5% | B = 3% | C = -1% | D = -40% | E = -3 | F = 15%
O=C(CCNC(=O)c1ccccc1Cl)Nc1ccc(Cl)c(C(F)(F)F)c1
  A = -5% | B = 9% | C = -2% | D = -5% | E = -10 | F = 35µM*
Cn1nc(C(F)(F)F)c2cc(C(=O)Nc3ccc(F)c(Cl)c3)sc21
  A = -1% | B = -4% | C = -15% | D = -1% | E = -76* | F = -5%
CCCCCCN1C=CC=C/C1=C/C=C(C#N)C#N
  A = -1% | B = -3% | C = -17% | D = -3% | E = 3 | F = 13µM*
CCCCCN1C=CC=C/C1=C\C=C(C#N)C#N
  A = 3% | B = 3% | C = -22% | D = 0% | E = -24 | F = -3%
COC(=O)c1ccccc1NC(=O)C1=C(C)C(=O)OC12CCC(C)CC2 (stereo unspecified)
  A = -1% | B = 2% | C = x | D = 3% | E = -18 | F = x
CSc1cc(-c2ccc(Cl)cc2)n(Cc2ccccc2)c(=O)c1C#N
  A = 22µM* | B = -4% | C = -2% | D = 0% | E = 2 | F = -1%
CCCOC(=O)c1cccc(NC(=O)CSc2nnc3cc(C)c4ccccc4n23)c1
  A = -1% | B = 1% | C = x | D = -6% | E = 4 | F = x
CCc1ccc(CN(Cc2ccco2)C(=O)c2ccc(OC)cc2)cc1
  A = -3% | B = -1% | C = x | D = 6% | E = -63* | F = x
CCc1ccc(CN(Cc2ccco2)C(=O)COc2ccccc2Cl)cc1
  A = -3% | B = -1% | C = x | D = u | E = -61* | F = x
CCCCCS(=O)(=O)c1oc(-c2cccs2)nc1S(=O)(=O)c1ccc(C)cc1
  A = 0% | B = -1% | C = x | D = 11% | E = 5 | F = x
CCCCS(=O)(=O)c1oc(-c2cccs2)nc1S(=O)(=O)c1ccc(F)cc1
  A = 1% | B = 0% | C = x | D = u | E = -76* | F = x
CCS(=O)(=O)c1oc(-c2ccc(F)cc2)nc1S(=O)(=O)c1ccccc1
  A = -1% | B = 0% | C = x | D = u | E = -107* | F = x
CCCCS(=O)(=O)c1oc(-c2ccc(F)cc2)nc1S(=O)(=O)c1ccc(C)cc1
  A = 0% | B = 1% | C = x | D = u | E = -72* | F = x
COC(=O)c1cc(Cl)ccc1NS(=O)(=O)C(F)(F)F
  A = x | B = x | C = x | D = x | E = 12 | F = x
COc1ccc(S(=O)(=O)Nc2ccc3c(c2)C(=O)N([C@H](C)CO)C[C@H](C)[C@@H](CN(C)S(=O)(=O)c2ccc(F)cc2)O3)cc1
  A = x | B = -6% | C = 4% | D = x | E = x | F = x
O=C(Nc1ccc(F)cc1F)c1ccc(-n2cnnc2)cc1
  A = 5% | B = -10% | C = x | D = -5% | E = -4 | F = x
Cc1ccc(OCc2nc(C#N)c(NCc3ccc4c(c3)OCO4)o2)cc1
  A = 3% | B = -4% | C = -8% | D = -9% | E = -6 | F = 8.9µM*
COc1ccc(CCNc2oc(COc3ccc(Br)cc3)nc2C#N)cc1OC
  A = 2% | B = 2% | C = -12% | D = u | E = -62* | F = 5%
CN(C)CCN1CCN(c2cccc(Cl)c2)C1=O
  A = x | B = x | C = x | D = x | E = 9 | F = x
O=C(C1CCCCC1)N(Cc1cccnc1)c1nc2c(F)cc(F)cc2s1
  A = 2% | B = -2% | C = x | D = 0% | E = -102* | F = x

3 entries from above, with each value named.
O=C(C1CCCCC1)N(Cc1cccnc1)c1nc2c(F)cc(F)cc2s1
  RXFP1 ag: 2% | ERG Ets-DNA blk: -2% | S-ASM inh: x | miR-21 FLuc: 0% | RXFP1 antag: -102* | Mito fusion act: x
Cn1cc([N+](=O)[O-])c(C(=O)Nc2sc3c(c2C#N)CCC3)n1
  RXFP1 ag: 0% | ERG Ets-DNA blk: 1% | S-ASM inh: -4% | miR-21 FLuc: -5% | RXFP1 antag: 2 | Mito fusion act: 11µM*
CCS(=O)(=O)c1oc(-c2ccc(F)cc2)nc1S(=O)(=O)c1ccccc1
  RXFP1 ag: -1% | ERG Ets-DNA blk: 0% | S-ASM inh: x | miR-21 FLuc: u | RXFP1 antag: -107* | Mito fusion act: x

Next entries
Letter code – A = RXFP1 ag; B = ERG Ets-DNA blk; C = S-ASM inh; D = miR-21 FLuc; E = RXFP1 antag; F = Mito fusion act
CN(C)CCCNC(=S)N(Cc1cccs1)Cc1cc2cc3c(cc2[nH]c1=O)OCCO3
  A = 1% | B = 6% | C = 50% | D = -18% | E = -63* | F = -2%
CCCC(=O)c1cc(O)c(O)cc1O
  A = x | B = x | C = x | D = x | E = -19 | F = x
CC(C)c1ccccc1NC(=S)NCCCn1ccnc1
  A = 1% | B = -1% | C = 5% | D = 0% | E = 0 | F = 1.6µM*
CCOc1ccc(NC(=S)NCCCn2ccnc2)cc1
  A = 2% | B = -15% | C = 4% | D = -2% | E = -2 | F = -6%
Cc1ccc(CN(C(=O)c2cc(=O)c3cc(C)cc(C)c3o2)C2CCS(=O)(=O)C2)cc1 (stereo unspecified)
  A = 4% | B = 14% | C = -1% | D = -29% | E = -4 | F = 10%
CCCOc1cccc(-c2nc3ccccc3c(=O)o2)c1
  A = 1% | B = -8% | C = -3% | D = -13% | E = -84* | F = 4%
Cc1cccc(N2C(=O)CCSC23C(=O)N(Cc2ccc(F)cc2)c2ccccc23)c1 (stereo unspecified)
  A = -2% | B = -13% | C = x | D = u | E = -63* | F = x
O=C1CCSC2(C(=O)N(Cc3ccc(F)cc3)c3ccccc32)N1c1ccccc1 (stereo unspecified)
  A = -2% | B = -6% | C = x | D = u | E = -62* | F = x
O=C1CCSC2(C(=O)N(Cc3ccc(F)cc3)c3ccccc32)N1c1cccc(F)c1 (stereo unspecified)
  A = -1% | B = -2% | C = x | D = 29% | E = u | F = x
O=C1CCSC2(C(=O)N(Cc3ccc(F)cc3)c3ccccc32)N1c1ccc(F)c(F)c1 (stereo unspecified)
  A = -2% | B = -1% | C = x | D = u | E = -72* | F = x
COCCc1ccc(OCC2CO2)cc1 (stereo unspecified)
  A = x | B = x | C = x | D = x | E = 5 | F = x
O=S(=O)(NCCC(c1ccc(F)cc1)c1ccco1)c1ccccc1 (stereo unspecified)
  A = 1% | B = -1% | C = -2% | D = 6% | E = -12 | F = 22µM*
CCCCCCCCCCCCCCCC[N+](C)(C)Cc1ccccc1
  A = x | B = x | C = x | D = x | E = -31 | F = x
O=C1NC(=O)C(Cc2cccc(Oc3ccccc3)c2)S1 (stereo unspecified)
  A = 2% | B = 2% | C = -9% | D = -28% | E = -2 | F = 11µM*
O=C1CCCC(O)=C1N=Nc1ccc(C(=O)O)cc1
  A = 1% | B = 28µM* | C = -1% | D = 1% | E = 14 | F = 1%
O=C1CCCC(O)=C1N=Nc1ccc2c(c1)OCO2
  A = -1% | B = 1% | C = -7% | D = -65% | E = 9 | F = -4%
Cc1ccc2onc(CC(=O)N(C)c3ccccc3)c2c1
  A = -2% | B = 5% | C = x | D = -41% | E = -3 | F = x
COc1cccc2[nH]c(C(=O)NCc3ccc4c(c3)CCN4C(=O)c3ccc(F)cc3)cc12
  A = 3% | B = 5% | C = x | D = u | E = -68* | F = x
COc1ccc(CC(=O)NCc2ccc3c(c2)CCN3C(=O)c2cccc(C)c2)cc1
  A = 4% | B = -9% | C = x | D = u | E = -97* | F = x
COc1ccc(OCC(=O)NCc2ccc3c(c2)CCN3C(=O)c2cccc(C)c2)cc1
  A = 1% | B = 1% | C = x | D = u | E = -5 | F = x
COc1ccc2cc(C(=O)NCc3ccc4c(c3)CCN4C(=O)c3ccc(F)cc3)[nH]c2c1
  A = 13% | B = 6% | C = x | D = 24% | E = -30 | F = x
CCc1ccccc1NS(=O)(=O)c1ccc2c(c1)OCC(C(=O)N1CCCC1)O2 (stereo unspecified)
  A = 0% | B = 7% | C = x | D = 1% | E = -14 | F = x

Assay outcomes (PubChem BioAssay)
